How the values were obtained:
HDAC-8 = HDAC-8 (Homo sapiens, UniProt Q9BY41); assay: Enzyme inhibitory activity, HD8; type: biochemical; conditions: read-out: IC50 HD 8
[1] = tested on: prostate cancer cell line Du145; assay: MTT assay, Du145; conditions: read-out: IC50 Du 145 (MTT); 72 hours
Method: (§1) Effects of HDAC isotype-specific small molecule inhibitors on growth inhibition of various human cancer cells (from ATCC) in vitro were determined by MTT assays. Briefly, cells seeded in 96-well plates were incubated for 72 hours at 37° C. in a 5% CO2 incubator. MTT (Sigma) was added at a final concentration of 0.5 mg/ml and incubated with the cells for 4 hours before an equal volume of solubilization buffer (50% N,N-dimethylformamide, 20% SDS, pH 4.7) was added onto cultured cells. After overnight incubation, solubilized dye was quantified by colorimetric reading at […] using a reference at 630 nM. OD values were converted to cell numbers according to a standard growth curve of the relevant cell line. The concentration which reduces cell numbers to 50% of those of DMSO-treated cells is determined as MTT IC50. In Table 4, IC50s of several HDAC7 or HDAC8 inhibitors in MTT assays in various human cancer cell lines were listed. They include colon cancer cells HCT116 and SW48, lung cancer cells A549 and H446, breast cancer cells MCF-7 and MDAmb231, a prostate cancer cell line Du145 and a bladder cancer cell line T24.

Amino acid sequences for entries named in this document (tags omitted).
UniProt Q9BY41, whole entry: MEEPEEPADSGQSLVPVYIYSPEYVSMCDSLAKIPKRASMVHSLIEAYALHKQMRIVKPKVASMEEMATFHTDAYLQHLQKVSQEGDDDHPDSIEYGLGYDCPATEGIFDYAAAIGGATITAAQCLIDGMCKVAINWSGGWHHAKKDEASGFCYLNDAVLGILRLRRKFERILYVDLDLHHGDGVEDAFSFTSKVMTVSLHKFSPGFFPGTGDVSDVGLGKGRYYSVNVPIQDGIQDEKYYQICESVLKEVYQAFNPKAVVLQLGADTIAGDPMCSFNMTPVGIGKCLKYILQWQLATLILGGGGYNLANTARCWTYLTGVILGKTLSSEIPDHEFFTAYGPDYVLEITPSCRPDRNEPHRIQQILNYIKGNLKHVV
UniProt Q13547, whole entry: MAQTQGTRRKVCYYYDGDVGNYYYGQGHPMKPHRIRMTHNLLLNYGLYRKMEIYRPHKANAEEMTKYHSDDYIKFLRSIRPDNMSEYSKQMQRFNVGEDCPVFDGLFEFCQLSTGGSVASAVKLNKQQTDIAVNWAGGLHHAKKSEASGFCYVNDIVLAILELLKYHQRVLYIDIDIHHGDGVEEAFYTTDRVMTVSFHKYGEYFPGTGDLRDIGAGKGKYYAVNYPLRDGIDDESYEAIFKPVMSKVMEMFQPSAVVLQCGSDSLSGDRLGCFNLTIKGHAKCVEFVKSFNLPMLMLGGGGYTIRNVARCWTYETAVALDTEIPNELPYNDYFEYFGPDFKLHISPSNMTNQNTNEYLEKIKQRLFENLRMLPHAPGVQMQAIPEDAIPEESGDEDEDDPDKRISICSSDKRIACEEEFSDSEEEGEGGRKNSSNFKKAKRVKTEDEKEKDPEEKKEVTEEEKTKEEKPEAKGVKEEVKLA
UniProt P56524, whole entry: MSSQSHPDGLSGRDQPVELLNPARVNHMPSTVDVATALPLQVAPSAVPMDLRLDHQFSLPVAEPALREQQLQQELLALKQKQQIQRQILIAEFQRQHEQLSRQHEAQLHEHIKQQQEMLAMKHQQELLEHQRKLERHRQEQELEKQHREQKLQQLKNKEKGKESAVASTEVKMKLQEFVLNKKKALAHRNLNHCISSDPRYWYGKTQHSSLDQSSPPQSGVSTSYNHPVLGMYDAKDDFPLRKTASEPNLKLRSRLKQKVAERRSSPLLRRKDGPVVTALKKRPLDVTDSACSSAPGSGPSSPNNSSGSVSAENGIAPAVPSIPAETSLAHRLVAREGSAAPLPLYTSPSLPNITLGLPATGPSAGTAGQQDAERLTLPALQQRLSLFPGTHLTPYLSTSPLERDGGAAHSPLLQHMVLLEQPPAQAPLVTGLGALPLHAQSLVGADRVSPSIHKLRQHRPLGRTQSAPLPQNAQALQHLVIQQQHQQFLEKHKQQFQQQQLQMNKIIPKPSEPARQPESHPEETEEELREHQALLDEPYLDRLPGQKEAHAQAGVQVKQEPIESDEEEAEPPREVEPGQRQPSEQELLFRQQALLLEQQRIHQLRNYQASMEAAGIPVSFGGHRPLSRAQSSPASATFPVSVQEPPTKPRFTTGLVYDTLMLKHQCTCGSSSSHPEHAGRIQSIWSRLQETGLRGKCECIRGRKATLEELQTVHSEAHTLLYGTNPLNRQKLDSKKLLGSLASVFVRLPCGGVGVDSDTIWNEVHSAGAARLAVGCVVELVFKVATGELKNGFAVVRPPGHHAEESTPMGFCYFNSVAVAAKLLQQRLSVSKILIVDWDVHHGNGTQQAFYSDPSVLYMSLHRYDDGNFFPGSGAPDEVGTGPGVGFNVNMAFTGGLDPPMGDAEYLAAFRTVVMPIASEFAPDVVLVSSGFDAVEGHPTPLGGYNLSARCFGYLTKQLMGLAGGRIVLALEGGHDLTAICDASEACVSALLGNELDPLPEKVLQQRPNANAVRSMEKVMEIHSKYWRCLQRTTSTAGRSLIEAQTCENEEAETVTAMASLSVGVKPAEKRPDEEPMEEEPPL
UniProt Q9UBN7, whole entry: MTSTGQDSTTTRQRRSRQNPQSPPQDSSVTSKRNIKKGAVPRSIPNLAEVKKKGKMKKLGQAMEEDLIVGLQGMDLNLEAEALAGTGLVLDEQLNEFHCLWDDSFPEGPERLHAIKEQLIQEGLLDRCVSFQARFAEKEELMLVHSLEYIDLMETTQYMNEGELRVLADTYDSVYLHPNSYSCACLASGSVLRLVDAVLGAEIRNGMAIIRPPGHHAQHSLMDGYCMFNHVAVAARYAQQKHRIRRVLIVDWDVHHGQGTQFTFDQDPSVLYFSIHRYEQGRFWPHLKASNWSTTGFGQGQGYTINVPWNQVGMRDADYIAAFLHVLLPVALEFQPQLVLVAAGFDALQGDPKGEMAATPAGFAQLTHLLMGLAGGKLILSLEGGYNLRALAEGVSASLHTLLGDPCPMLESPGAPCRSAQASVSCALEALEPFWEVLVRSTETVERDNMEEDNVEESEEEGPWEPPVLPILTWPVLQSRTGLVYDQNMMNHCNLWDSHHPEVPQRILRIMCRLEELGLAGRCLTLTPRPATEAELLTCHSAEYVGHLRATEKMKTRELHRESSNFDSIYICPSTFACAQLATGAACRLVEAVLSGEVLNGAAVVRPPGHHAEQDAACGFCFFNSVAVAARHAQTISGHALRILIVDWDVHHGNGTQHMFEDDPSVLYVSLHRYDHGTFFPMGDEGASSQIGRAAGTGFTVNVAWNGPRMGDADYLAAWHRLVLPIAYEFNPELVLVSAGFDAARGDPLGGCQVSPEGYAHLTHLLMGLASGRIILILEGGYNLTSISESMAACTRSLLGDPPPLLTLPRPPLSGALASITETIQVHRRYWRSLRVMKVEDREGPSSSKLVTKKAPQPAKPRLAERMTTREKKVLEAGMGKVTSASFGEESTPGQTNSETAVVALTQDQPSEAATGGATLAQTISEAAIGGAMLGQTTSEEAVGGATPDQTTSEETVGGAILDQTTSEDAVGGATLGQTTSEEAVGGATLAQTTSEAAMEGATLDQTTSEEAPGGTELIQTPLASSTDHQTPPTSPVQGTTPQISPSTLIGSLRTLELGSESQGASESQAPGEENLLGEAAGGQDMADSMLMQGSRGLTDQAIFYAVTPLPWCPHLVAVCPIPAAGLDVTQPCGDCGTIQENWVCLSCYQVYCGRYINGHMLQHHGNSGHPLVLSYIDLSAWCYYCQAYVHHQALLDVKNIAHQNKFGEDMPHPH

HDAC-1 = HDAC-1 (Homo sapiens, UniProt Q13547); assay: Enzyme inhibitory activity, HD1; type: biochemical; conditions: read-out: IC50 HD 1
[2] = tested on: breast cancer cells MCF-7; assay: MTT assay, MCF-7; conditions: read-out: MTT IC50 MCF 7; 72 hours
Method: as §1

lung cancer cells A549 = assay: MTT assay, A549; conditions: read-out: IC50 A 549 (MTT); 72 hours
Method: as §1

[3] = tested on: colon cancer cells HCT116; assay: MTT assay, HCT116; conditions: read-out: IC50 HCT 116 (MTT); 72 hours
Method: as §1

colon cancer cells SW48 = assay: MTT assay, SW48; conditions: read-out: MTT IC50 SW 48; 72 hours
Method: as §1

[4] = tested on: bladder cancer cell line T24; assay: MTT assay, T24; conditions: read-out: MTT IC50 T 24; 72 hours
Method: as §1

HDAC-4 = HDAC-4 (Homo sapiens, UniProt P56524); assay: Enzyme inhibitory activity, HD4; type: biochemical; conditions: read-out: IC50 HD4
HDAC-6 = HDAC-6 (Homo sapiens, UniProt Q9UBN7); assay: Enzyme inhibitory activity, HD6; type: biochemical; conditions: read-out: IC50 HD 6

For `Nc1nc(NCc2ccc(C(=O)Nc3ccccc3N)cc2)nc(NC2Cc3ccccc3C2)n1`, the IC50 (HDAC-8) was 35 µM, the IC50 [1] was 0.9 µM and the IC50 (HDAC-1) was 0.4 µM. The IC50 [2] was 3 µM, the IC50 (lung cancer cells A549) was 3 µM and the IC50 [3] was 0.5 µM. For the same compound, the IC50 (colon cancer cells SW48) was 3 µM, the IC50 [4] was 2 µM and the IC50 (HDAC-4) was > 50 µM. For the same compound, the IC50 (HDAC-6) was > 50 µM.

Source: US20040072770A1, “Methods for specifically inhibiting histone deacetylase-7 and 8” (priority 2002, published 2004)
